# Ab-91 heavy chain CDR variants: yeast mating affinities

Data: MIT Lincoln Laboratory AlphaSeq set, Engelhart et al. 2022, doi:10.1038/s41597-022-01779-4, as distributed in FLAb.

Target: peptide PDVDLGDISGINAS, taken from heptad repeat 2 (HR2) of SARS-CoV-2 spike.

Each scFv is VL, a 15-residue (Gly4Ser)3 linker, VH, as in the parent Ab-91, and differs from it in the CDRs of the heavy chain only.
VL: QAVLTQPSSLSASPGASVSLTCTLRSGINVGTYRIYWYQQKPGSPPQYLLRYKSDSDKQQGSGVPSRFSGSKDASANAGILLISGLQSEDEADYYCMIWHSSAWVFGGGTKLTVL
VH: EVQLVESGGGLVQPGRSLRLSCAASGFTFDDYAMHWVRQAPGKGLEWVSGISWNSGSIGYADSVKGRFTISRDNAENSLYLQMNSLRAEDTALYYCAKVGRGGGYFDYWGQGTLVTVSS

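Library AAYL51 holds single substitutions and randomly drawn double and triple substitutions in the CDRs. The assay is AlphaSeq: two haploid yeast populations carry antibody and antigen on their surface. After mating in shaken culture at 30 °C for 16 h, diploids were selected and their barcode pairs sequenced. Read counts were normalised to the haploid input and turned into Kd by a linear fit to BCL2-family pairs of known affinity, for each replicate. There are three technical replicates.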

Changes read parent residue, position, new residue, counted from the first residue of the VH shown. This list gathers variants with a substitution at V99 (VH, numbered from residue 1). Kd is apparent (estimated from mating counts) and averaged on the log scale over replicates with a signal. Smaller is tighter. Where no diploid with the target was found in any replicate, the entry reads "nd": below detection, most likely a poor binder, though not proof of it.

| changes | Kd | seen in |
|---|---|---|
| S63V/V64L/V99D | nd | 0 of 3 |
| T28Q/N54I/V99F | 26 µM | 2 of 3 |
| G50I/D62A/V99I | nd | 0 of 3 |
| I58P/V99F/G104H | 47 µM | 2 of 3 |
| V99I/G100R/G104I | 14 µM | 3 of 3 |
| A33N/W53F/V99H | 610 µM | 1 of 3 |
| K65L/V99P/G104E | 7.6 nM | 3 of 3 |
| A33L/S57K/V99T | nd | 0 of 3 |
| D30L/V99F | 140 µM | 2 of 3 |
| M34Q/V99G/Y105F | 5.7 µM | 1 of 3 |
| T28D/G50W/V99I | 16 µM | 2 of 3 |
| D30W/N54V/V99N | nd | 0 of 3 |
| V99T/F106Q | 170 µM | 2 of 3 |
| Y60H/V99F/D107V | 52 µM | 2 of 3 |
| V99I/G104M | 980 nM | 3 of 3 |
| I58Q/A61P/V99K | nd | 0 of 3 |
| F27W/V99N/G104V | 15 µM | 2 of 3 |
| S55T/D62W/V99W | nd | 0 of 3 |
| N54W/V99A/G104A | 57 µM | 2 of 3 |
| D30I/V99Q/F106E | nd | 0 of 3 |
| A33H/G59S/V99G | nd | 0 of 3 |
| G26I/W53G/V99A | nd | 0 of 3 |
| G56I/V99S/R101K | 400 nM | 1 of 3 |
| Y32R/S57E/V99P | 35 µM | 1 of 3 |
| G50D/V99N/Y108C | nd | 0 of 3 |
| T28L/I51V/V99T | nd | 0 of 3 |
| G56W/V99S/G102C | nd | 0 of 3 |
| V99C/G102E/Y105K | 14 µM | 1 of 3 |
| N54F/A61I/V99Q | nd | 0 of 3 |
| A61F/V99Y/R101G | nd | 0 of 3 |
| Y32L/V99A | nd | 0 of 3 |
| T28W/F29K/V99K | nd | 0 of 3 |
| V99S/G103C/G104F | nd | 0 of 3 |
| F29C/K65P/V99A | 43 µM | 1 of 3 |
| T28H/G59H/V99M | nd | 0 of 3 |
| V99M/D107H | 51 µM | 1 of 3 |
| V99E | 52 µM | 1 of 3 |
| Y60G/V99H | nd | 0 of 3 |
| V64R/V99P/R101S | nd | 0 of 3 |
| Y32L/Y60P/V99P | 43 µM | 2 of 3 |
| F29V/S55Y/V99S | 23 µM | 2 of 3 |
| I51G/V99T/G102L | 10 µM | 2 of 3 |
| S52D/W53V/V99L | 12 µM | 1 of 3 |
| T28W/G56D/V99F | nd | 0 of 3 |
| D31V/M34P/V99L | 340 µM | 3 of 3 |
| T28H/I58A/V99E | nd | 0 of 3 |
| G26R/S52I/V99S | 180 µM | 1 of 3 |
| Y60G/V99P/G104W | 610 µM | 1 of 3 |
| W53L/S63R/V99S | nd | 0 of 3 |
| N54E/V99N/D107V | 390 µM | 3 of 3 |
| Y32K/G50Q/V99I | 51 µM | 1 of 3 |
| G26M/I58Q/V99K | nd | 0 of 3 |
| S52E/V99H | 130 µM | 1 of 3 |
| G26Q/V64Y/V99W | nd | 0 of 3 |
| I58A/V99M/G104H | 230 µM | 2 of 3 |
| F27D/H35Q/V99S | nd | 0 of 3 |
| W53V/V99H/G100N | 240 µM | 1 of 3 |
| K65W/V99P/G100S | 2.6 µM | 1 of 3 |
| H35R/V99Y/G104A | nd | 0 of 3 |
| V64F/V99L/R101D | nd | 0 of 3 |
| S52H/I58S/V99G | 1.0 µM | 1 of 3 |
| G26T/F29T/V99F | 24 µM | 1 of 3 |
| F29V/V99H/Y105T | 9.7 µM | 3 of 3 |
| S57A/V99W/G100A | 19 µM | 1 of 3 |
| A61K/V99G/D107P | 5.1 µM | 3 of 3 |
| T28D/D62S/V99D | nd | 0 of 3 |
| D30F/G59C/V99D | nd | 0 of 3 |
| N54V/A61M/V99C | 4.6 µM | 1 of 3 |
| S52L/S55A/V99Y | nd | 0 of 3 |
| V99D/Y108D | 14 µM | 3 of 3 |
| S57K/V99I/G104S | 150 µM | 2 of 3 |
| A61I/V99I/Y105V | 36 nM | 3 of 3 |
| W53R/V99E/G104L | nd | 0 of 3 |
| N54A/S57R/V99R | nd | 0 of 3 |
| D62C/V99Y/G100F | 120 µM | 2 of 3 |
| S55Q/V99F | 200 nM | 3 of 3 |

Again, the first 8 entries without any signal:

changes	Kd	seen in
S63V/V64L/V99D	nd	0 of 3
G50I/D62A/V99I	nd	0 of 3
A33L/S57K/V99T	nd	0 of 3
D30W/N54V/V99N	nd	0 of 3
I58Q/A61P/V99K	nd	0 of 3
S55T/D62W/V99W	nd	0 of 3
D30I/V99Q/F106E	nd	0 of 3
A33H/G59S/V99G	nd	0 of 3

Parent in this assay: reference entry 72 nM, copy in this library 7.5 nM. Nonspecific signal, from three strains lacking the peptide, appeared in 21% of pairings of library AAYL51, centred on 34 µM (5% of these signals below 1.8 µM); values are not corrected for it.